Test: Accelerated stability study (Form A): temperature, humidity, light
Format: physicochemical
Protocol: The exceptional stability of the Form A polymorph of Ib was confirmed in a long-term accelerated stability study to evaluate the effect of temperature, humidity, and light on the quality of the drug substance with time. Stability samples were evaluated for appearance, water content, chemical stability using an HPLC method and physical stability using DSC, specific rotation and x-ray powder diffraction methods. Photochemical stability was assessed by comparison with a control sample that was wrapped in aluminum foil and set side by side with the light sample in the light chamber. Results of the study are contained in Table 2
DSC Thermograms were collected using a 2920 Modulated DSC from Thermal Analyzer (TA) Instruments. The heating rate was 10° C./min with a nitrogen purge maintained throughout the run.
HPLC grade deionized water obtained from Milli-Q Water Purification System (Millipore Corp., Milford Mass.), HPLC grade acetonitrile (Burdick Jackson Lab, Inc., Muskegon, Mich.), -Heptane sulfonic acid sodium salt, monohydrate (Fluka), Phosphoric acid, 85% (Mallinckrodt, Sigma, or Fluka), and Hydrochloric Acid, 1 N (J. T. Baker) were used to prepared mobile phase and dilution solvent.
Chromatography was carried out on a Zorbax SB-CN, 4.6×150 mm, 3.5 μm column. A ternary solvent gradient was used comprised of (A) water, (B) acetonitrile and (C) 200 mM heptane sulfonic acid sodium salt, monohydrate with 1% phosphoric acid in water. To prepare 500 mL of the solution, dissolve 22.0 g of 1-heptane sulfonic acid sodium salt, monohydrate in about 400 mL of water. Add 5 mL of phosphoric acid, 85% and then dilute to a volume of 500 mL with water and mix thoroughly. A flow rate of 1.0 mL/m was used. The column was run isocratically with 90% A and 10% C for 5 m. A linear gradient to 20% A, 70% B and 10% C was run over 20 m. This mixture was run isocratically for an addition 5 m after which the solvent was ramped back to 90% A and […] over 2 m followed by 8 m to reequilibrate the column. The column was maintained at 40° C. The retention time of Ib was approximately 11 m.

[1] = Light Control (wrapped in aluminum foil), ICH Q1B

2-(S)-amino-3-methyl-butyric acid 5S-(3-carbamoyl-[1,2,4]triazol-1-yl)-3R,4S-dihydroxy-tetrahydrofuran-2S-yl methyl ester, monohydrochloride [Form A]
% Water (2–8° C., 3 months): 2.60%
DSC Onset temp (2–8° C., 3 months): 159.90 °C
Specific Rotation (2–8° C., 3 months): 8.0
% Water (2–8° C., 4 weeks): 2.56%
DSC Onset temp (2–8° C., 4 weeks): 163.17 °C
Specific Rotation (2–8° C., 4 weeks): 8.5
% Water (25° C. 60% RH, 3 months): 2.63%
DSC Onset temp (25° C. 60% RH, 3 months): 159.28 °C
Specific Rotation (25° C. 60% RH, 3 months): 6.4
% Water (25° C. 60% RH, 4 weeks): 2.33%
DSC Onset temp (25° C. 60% RH, 4 weeks): 162.99 °C
Specific Rotation (25° C. 60% RH, 4 weeks): 7.6
% Water (30° C. 60% RH, 3 months): 2.51%
DSC Onset temp (30° C. 60% RH, 3 months): 161.55 °C
Specific Rotation (30° C. 60% RH, 3 months): 7.1
% Water (30° C. 60% RH, 4 weeks): 2.49%
DSC Onset temp (30° C. 60% RH, 4 weeks): 163.78 °C
Specific Rotation (30° C. 60% RH, 4 weeks): 8.0
% Water (40° C. 75% RH, 3 months): 2.63%
DSC Onset temp (40° C. 75% RH, 3 months): 160.06 °C
Specific Rotation (40° C. 75% RH, 3 months): 7.3
% Water (40° C. 75% RH, 4 weeks): 2.50%
DSC Onset temp (40° C. 75% RH, 4 weeks): 161.90 °C
Specific Rotation (40° C. 75% RH, 4 weeks): 8.7
% Water (60° C., 3 months): 2.63%
DSC Onset temp (60° C., 3 months): 159.80 °C
Specific Rotation (60° C., 3 months): 7.4
% Water (60° C., 4 weeks): 2.52%
DSC Onset temp (60° C., 4 weeks): 160.47 °C
Specific Rotation (60° C., 4 weeks): 6.9
% Water [1]: 2.48%
DSC Onset temp [1]: 159.38 °C
Specific Rotation [1]: 7.0
% Water (Light, ICH Q1B): 2.52%
DSC Onset temp (Light, ICH Q1B): 161.88 °C
Specific Rotation (Light, ICH Q1B): 7.1
% Water (RT, Initial): 2.25%
DSC Onset temp (RT, Initial): 159.0 °C
Specific Rotation (RT, Initial): 6.3

From patent US7393839B2, “Polymorphic antiviral nucleoside compounds” (Roche Palo Alto LLC, priority 2003, dated 2008)
